Targets include NEK2 (human) (UniProt P51955); CDC42BPB (human) (UniProt Q9Y5S2); CHUK (human) (UniProt O15111); EPHB1 (human) (UniProt P54762).
Assay in all cases: radiometric filter-binding kinase assay, Kinase HotSpot
Holding throughout (details): compound 0.5 µM; ATP 10 µM

Sequences of proteins named here, by UniProt entry; tags and fusion partners are left off. A change or cut given only in a name is not applied to a line headed by its entry.
UniProt P51955: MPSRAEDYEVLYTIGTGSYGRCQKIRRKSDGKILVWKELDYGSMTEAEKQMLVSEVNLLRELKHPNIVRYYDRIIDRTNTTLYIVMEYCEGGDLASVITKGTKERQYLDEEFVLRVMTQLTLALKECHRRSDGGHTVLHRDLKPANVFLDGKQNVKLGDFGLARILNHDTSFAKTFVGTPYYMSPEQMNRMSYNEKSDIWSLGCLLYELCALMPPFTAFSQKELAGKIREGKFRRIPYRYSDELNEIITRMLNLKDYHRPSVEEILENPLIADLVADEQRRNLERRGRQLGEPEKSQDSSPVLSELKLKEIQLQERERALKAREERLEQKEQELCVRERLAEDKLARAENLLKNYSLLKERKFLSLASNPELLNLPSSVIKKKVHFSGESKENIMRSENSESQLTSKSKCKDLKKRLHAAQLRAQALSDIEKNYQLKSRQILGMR
UniProt Q9Y5S2: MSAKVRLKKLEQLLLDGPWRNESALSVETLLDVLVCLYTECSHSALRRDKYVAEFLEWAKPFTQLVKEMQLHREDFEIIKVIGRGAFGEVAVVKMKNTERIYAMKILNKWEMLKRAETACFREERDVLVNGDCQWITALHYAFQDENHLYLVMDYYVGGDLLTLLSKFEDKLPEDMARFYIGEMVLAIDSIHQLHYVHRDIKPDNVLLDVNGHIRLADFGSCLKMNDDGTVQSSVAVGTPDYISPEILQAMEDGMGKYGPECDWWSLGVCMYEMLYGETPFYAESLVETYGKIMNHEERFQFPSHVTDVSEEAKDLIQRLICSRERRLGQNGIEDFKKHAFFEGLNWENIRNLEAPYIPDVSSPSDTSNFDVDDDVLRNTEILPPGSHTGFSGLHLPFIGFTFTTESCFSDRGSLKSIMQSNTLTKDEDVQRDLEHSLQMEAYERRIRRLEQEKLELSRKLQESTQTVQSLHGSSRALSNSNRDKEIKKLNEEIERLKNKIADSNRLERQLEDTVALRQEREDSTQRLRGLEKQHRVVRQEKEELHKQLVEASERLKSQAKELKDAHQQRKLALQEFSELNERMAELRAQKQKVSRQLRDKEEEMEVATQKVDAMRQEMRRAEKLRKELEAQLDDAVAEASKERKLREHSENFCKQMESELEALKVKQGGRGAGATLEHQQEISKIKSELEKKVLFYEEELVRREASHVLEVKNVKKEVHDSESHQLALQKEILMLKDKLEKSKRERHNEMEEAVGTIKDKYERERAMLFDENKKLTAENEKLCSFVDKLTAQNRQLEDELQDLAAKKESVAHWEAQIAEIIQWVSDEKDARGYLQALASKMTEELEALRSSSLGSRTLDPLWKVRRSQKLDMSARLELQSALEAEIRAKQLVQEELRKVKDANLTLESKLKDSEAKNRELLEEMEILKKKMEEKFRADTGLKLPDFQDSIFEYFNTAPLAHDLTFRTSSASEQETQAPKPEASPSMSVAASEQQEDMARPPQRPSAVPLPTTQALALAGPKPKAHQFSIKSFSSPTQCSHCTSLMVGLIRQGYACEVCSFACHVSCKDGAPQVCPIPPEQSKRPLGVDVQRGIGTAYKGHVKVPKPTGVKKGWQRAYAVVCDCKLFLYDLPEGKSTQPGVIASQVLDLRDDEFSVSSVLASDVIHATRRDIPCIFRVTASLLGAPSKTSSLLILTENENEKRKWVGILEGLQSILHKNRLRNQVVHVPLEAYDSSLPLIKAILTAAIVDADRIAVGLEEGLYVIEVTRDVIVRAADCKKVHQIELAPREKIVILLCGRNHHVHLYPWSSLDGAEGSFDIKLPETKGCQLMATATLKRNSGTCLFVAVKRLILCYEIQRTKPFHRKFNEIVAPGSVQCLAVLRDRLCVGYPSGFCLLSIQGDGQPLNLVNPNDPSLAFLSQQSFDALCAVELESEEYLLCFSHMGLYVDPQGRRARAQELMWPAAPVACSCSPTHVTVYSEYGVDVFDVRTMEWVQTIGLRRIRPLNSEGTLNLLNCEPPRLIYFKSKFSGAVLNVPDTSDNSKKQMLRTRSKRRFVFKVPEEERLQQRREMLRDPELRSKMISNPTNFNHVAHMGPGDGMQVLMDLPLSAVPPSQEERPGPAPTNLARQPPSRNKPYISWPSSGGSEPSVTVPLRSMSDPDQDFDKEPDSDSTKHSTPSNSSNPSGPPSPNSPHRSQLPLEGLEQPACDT
UniProt O15111: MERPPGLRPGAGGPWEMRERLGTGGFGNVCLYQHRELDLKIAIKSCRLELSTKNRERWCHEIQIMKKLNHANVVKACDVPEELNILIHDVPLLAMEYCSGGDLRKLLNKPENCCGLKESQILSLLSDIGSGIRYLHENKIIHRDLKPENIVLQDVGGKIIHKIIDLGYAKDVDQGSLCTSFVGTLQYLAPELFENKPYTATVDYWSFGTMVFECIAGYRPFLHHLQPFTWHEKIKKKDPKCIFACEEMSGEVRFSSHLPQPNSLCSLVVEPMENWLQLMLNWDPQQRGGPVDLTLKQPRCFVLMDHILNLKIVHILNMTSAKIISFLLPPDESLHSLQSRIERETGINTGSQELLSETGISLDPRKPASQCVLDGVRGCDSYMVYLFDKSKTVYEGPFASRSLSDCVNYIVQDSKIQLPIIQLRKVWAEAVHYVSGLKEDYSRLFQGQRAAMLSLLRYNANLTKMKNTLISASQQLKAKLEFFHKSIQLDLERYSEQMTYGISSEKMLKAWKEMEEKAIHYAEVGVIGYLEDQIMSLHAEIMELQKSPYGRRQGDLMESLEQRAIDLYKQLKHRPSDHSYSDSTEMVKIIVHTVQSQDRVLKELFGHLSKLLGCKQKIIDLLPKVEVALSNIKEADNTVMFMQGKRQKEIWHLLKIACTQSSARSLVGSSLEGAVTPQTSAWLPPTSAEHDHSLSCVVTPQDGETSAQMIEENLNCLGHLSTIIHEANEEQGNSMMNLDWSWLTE
UniProt P54762: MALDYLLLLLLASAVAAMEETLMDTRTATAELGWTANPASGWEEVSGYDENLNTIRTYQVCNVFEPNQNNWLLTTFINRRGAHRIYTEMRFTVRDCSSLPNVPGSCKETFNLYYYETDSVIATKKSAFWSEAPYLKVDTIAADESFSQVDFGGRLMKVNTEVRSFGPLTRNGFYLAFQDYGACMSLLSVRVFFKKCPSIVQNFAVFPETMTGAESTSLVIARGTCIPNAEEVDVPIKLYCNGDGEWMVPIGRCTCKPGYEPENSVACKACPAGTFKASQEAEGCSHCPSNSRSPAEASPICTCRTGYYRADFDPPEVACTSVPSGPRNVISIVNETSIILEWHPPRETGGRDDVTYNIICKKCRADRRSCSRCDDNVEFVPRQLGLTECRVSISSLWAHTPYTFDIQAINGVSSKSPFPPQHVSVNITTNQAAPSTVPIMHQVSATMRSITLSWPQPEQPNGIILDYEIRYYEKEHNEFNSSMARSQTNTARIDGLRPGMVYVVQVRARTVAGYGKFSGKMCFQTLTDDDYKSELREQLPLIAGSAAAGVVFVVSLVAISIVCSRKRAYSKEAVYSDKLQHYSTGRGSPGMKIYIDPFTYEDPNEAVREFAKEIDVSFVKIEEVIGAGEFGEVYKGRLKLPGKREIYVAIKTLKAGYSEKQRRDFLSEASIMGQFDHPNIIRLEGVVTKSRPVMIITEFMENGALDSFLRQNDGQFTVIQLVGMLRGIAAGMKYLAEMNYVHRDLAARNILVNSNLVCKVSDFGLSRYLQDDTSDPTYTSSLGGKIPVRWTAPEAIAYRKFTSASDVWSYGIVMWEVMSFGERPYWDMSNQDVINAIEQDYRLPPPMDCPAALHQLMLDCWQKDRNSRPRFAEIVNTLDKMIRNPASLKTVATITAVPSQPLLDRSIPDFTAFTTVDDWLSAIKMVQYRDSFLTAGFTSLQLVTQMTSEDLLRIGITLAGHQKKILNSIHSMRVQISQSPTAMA

The values that follow come from the kinase profiling compilation of Christmann-Franck et al. (2016).

What is called residual activity is the signal under treatment as a percentage of the control signal. As to `COc1ccc(OC)c2c(=S)c3ccccc3[nH]c12`, the residual activity on NEK2 (human) stood at 95%.

With `O=C1NC(=O)C(c2cn(CCCO)c3ncccc23)=C1c1cnccn1`, the figures for the residual activity at CDC42BPB (human), at CHUK (human) and on EPHB1 (human) were 102%, 101% and 109%, respectively.
